## Binding of CDR-mutated scFvs to a peptide of the spike HR2 region

All variants were tested on one target, the spike HR2 peptide PDVDLGDISGINAS (SARS-CoV-2).

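Library AAYL52 holds single substitutions and randomly drawn double and triple substitutions in the CDRs. Affinity was read by AlphaSeq, a pooled yeast mating assay with surface-displayed partners. Binding brings cells together so that they mate, and sequencing counts the barcode pairs among the diploids. A regression on co-assayed BCL2-family reference pairs converts the normalised counts of each replicate to an apparent Kd. The assay was run in three technical replicates.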

Ab-95 is the parent antibody, in scFv form: VH, then a 15-residue (Gly4Ser)3 linker, then VL. The heavy chain is unchanged in all variants.
VH: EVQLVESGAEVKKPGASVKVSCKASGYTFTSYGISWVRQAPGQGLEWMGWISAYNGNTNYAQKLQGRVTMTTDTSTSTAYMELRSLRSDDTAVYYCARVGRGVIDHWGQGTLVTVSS
VL: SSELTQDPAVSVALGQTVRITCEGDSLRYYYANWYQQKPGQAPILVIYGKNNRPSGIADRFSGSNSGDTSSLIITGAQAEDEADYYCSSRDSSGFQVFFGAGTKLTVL

Substitutions are numbered in sequence along the VL above, starting at 1 (not Kabat). Scale: log10 of Kd in nM, estimated from mating counts; low values are strong binders. "n.d." means that the variant was in the library but no mating with the target was seen in that replicate; the authors take this as a sign of poor binding, and no number exists. Parent in this assay: reference entry 2.31, copy in this library 2.25.

| changes | replicates, log10 nM | signal with controls |
|---|---|---|
| Y31F N33P G49T | n.d. / n.d. / n.d. | 3/9 (3.93) |
| E23M Y31M | 1.54 / 1.59 / 1.12 | 3/9 (3.82) |
| Y29P Y30I P54Q | 4.04 / n.d. / n.d. | 3/9 (4.00) |
| E23S L27K S89M | n.d. / 4.92 / 2.94 | 2/9 (4.48) |
| R28S F95H F98W | 2.87 / 2.34 / 2.65 | 1/9 (3.59) |
| R28S S88P D91F | 4.83 / 3.58 / 3.57 | 4/9 (3.98) |
| S55W S92A Q96N | 2.22 / 2.17 / 2.79 | 0/9 |
| Y29D S93E | 2.52 / 2.63 / 2.38 | 4/9 (4.69) |
| D25W N52Q S92Q | 2.02 / 2.00 / 1.93 | 2/9 (3.49) |
| K50G D91K V97H | n.d. / n.d. / 2.26 | 1/9 (3.48) |
| G24V Y31S S88A | n.d. / n.d. / n.d. | 0/9 |
| G24A N33G V97N | n.d. / 3.50 / n.d. | 3/9 (4.45) |
| E23A S88E S92V | 2.42 / 2.55 / 1.95 | 4/9 (3.01) |
| N33M K50F V97A | 3.99 / n.d. / 3.91 | 3/9 (3.38) |
| R28P R53N V97R | n.d. / n.d. / n.d. | 1/9 (4.30) |
| R28Y S88W | 2.99 / 2.54 / 1.87 | 4/9 (4.64) |
| L27C N51C S88E | 4.58 / 5.78 / n.d. | 5/9 (4.02) |
| G24Y Y31C Q96A | n.d. / 3.00 / 2.43 | 4/9 (3.86) |
| N51H P54R F95S | 3.95 / 4.71 / 4.06 | 0/9 |
| Y30E G49Q | 2.35 / 2.30 / 1.89 | 6/9 (4.40) |
| S55Q S88E S92P | 2.41 / 2.38 / 2.25 | 3/9 (4.31) |
| G24R S26D R53I | n.d. / 4.26 / n.d. | 4/9 (4.55) |
| E23V S26Q K50R | 2.82 / 3.53 / n.d. | 0/9 |
| Y31P S93A G94W | 3.81 / n.d. / 2.53 | 2/9 (4.02) |
| A32P V97Q F98A | 2.58 / 2.15 / 3.46 | 4/9 (4.03) |
| N52L S89W Q96V | 2.61 / 2.61 / 1.99 | 2/9 (3.72) |
| Y31S P54Y S55Y | 2.55 / 2.68 / 2.83 | 4/9 (4.39) |
| S26V Y31Q P54H | 3.21 / 3.03 / 3.37 | 3/9 (4.74) |
| N51I Q96R V97T | n.d. / 3.52 / n.d. | 3/9 (4.79) |
| L27H G94W F95G | 3.00 / 3.18 / 3.32 | 3/9 (4.42) |

Top 2 of the variants detected in all replicates, tightest first:

changes,"replicates, log10 nM",signal with controls
E23M Y31M,1.54 / 1.59 / 1.12,3/9 (3.82)
D25W N52Q S92Q,2.02 / 2.00 / 1.93,2/9 (3.49)

Empty control strains, which show no peptide, gave a signal in 28% of pairings with library AAYL52; the median was 3.91 and 95% of these signals were weaker than 2.90. No background was subtracted. For each scFv, signals with the empty controls are counted beside the result, with their mean in brackets.

From the AlphaSeq antibody data of Engelhart et al. 2022 (doi:10.1038/s41597-022-01779-4), copy in the FLAb collection.